# Reference: ChEMBL document CHEMBL2177071, “The effect of Pro(2) modifications on the structural and pharmacological properties of endomorphin-2” (J Med Chem, 2012)
# Amino acid sequences for entries named in this document (tags omitted).
# UniProt P33535, whole entry: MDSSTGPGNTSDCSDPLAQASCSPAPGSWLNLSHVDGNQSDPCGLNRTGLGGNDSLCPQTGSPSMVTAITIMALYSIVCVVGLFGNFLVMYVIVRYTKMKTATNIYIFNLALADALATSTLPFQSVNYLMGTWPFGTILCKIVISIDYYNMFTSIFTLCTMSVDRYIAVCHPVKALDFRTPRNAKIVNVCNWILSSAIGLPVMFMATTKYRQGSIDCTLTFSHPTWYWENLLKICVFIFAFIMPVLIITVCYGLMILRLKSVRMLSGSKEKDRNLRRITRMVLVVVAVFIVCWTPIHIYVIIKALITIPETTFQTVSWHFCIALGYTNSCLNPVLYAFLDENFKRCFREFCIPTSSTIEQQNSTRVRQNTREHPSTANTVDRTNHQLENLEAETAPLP
# Target: Mu-type opioid receptor (Rattus norvegicus, UniProt P33535)
# Test: Agonist activity at mu opioid receptor in Wistar rat brain membranes after 60 mins by [35S]GTPgammaS binding assay
# Type: functional, cell membranes, Membrane
compound,measurement,value
C[C@@H](NC(=O)[C@@H](N)Cc1ccc(O)cc1)C(=O)NCC(=O)N(C)[C@@H](Cc1ccccc1)C(=O)NCCO [DAMGO],EC50,485 nM
